Results published in PubChem BioAssay AID485281 (National Center for Advancing Translational Sciences (NCATS), 2010).
The list shows a part of the results, in another mix than the full data. Records with an inconclusive call do not appear. Active and inactive are the calls of the source. The call rests on the fitted dose curve; in most records, active means well fitted inhibition curve with a large enough effect; inconclusive means small, poorly fitted or top-dose-only effect; inactive means no such curve, though single readings can be large or run the other way.

Protein sequences, listed by entry. Tags and fused reporters are not part of them. Residues count along the entry.
UniProt P02791, 2-175 limits assumed: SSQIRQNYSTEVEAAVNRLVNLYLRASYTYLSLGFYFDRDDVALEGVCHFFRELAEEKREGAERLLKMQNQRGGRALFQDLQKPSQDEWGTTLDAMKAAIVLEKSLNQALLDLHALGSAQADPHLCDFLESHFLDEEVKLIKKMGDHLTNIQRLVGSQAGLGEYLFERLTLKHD

target: Ferritin light chain (Equus caballus) (UniProt P02791); experiment: qHTS Assay for Identification of Novel General Anesthetics; details: apoferritin/1-aminoanthracene competitive binding, fluorescence; at 77.5 µM (top of the series); further: nearly all actives have a fitted effect of over 20% in size
On the % scale 0 is the no-effect control and ±100 the full control effect.

Compound	activity change, negative = displacement
COc1ccccc1OP(C)(=O)Nc1ccc(C)cc1C (configuration not stated)	inactive: -11.5%
CP(=O)(Oc1ccccc1)OC(c1ccccc1)C(F)(F)F (configuration not stated)	inactive: -14.5%
